# Compound activity as filed in PubChem BioAssay.
# Rows were chosen to be rich in hits. Some 2.3% of all compounds tested hit in one or more screens of this group.
# miR-21 FLuc = miR-21 reporter, rising signal; HeLa miR-21 FLuc reporter, luciferase, 48 h; Potency, µM (titrated, usually from 38.3 µM), without a hit: top-dose reporter change, positive = more light; AID 2288; 340,000 tested, under 10 active; active = well fitted rising curve with a large enough effect; inconclusive = small, poorly fitted or top-dose-only effect; inactive = no such curve, though single readings can be large or run the other way;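 further: % of control where 0% means no effect; miR-21 action dims this reporter so a rising signal means less miR-21 action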
#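 Compounds were titrated across several concentrations (up to approximately 40 uM) and incubated 48 hours with HeLa miR-21-FLuc reporter cells (miR-21 target sequence downstream of FLuc, endogenous miR-21). Readout was firefly luciferase luminescence after lytic detection reagent.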
# Mito fusion act = inhibitors of mitochondrial division or activators of mitochondrial fusion | S. cerevisiae fusion-defective mutant growth rescue, CellTiterGlo 48 h | Potency, µM (doses to about 46.1 µM), without a hit: top-dose growth rescue (activation), usual class: activators | 0.23% of 320,000 active; note: potency is the fitted concentration of half-maximal effect; % of control where 0% means no effect; nearly all actives have a fitted effect of over 45% in size
#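 Luminescent cell viability in 1536-well qHTS format served as the measure of rescued growth in ts fusion-mutant S. cerevisiae cultured on non-fermentable YPEG for 48 hours at 37C.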
# A549 viability = A549 cytotoxicity, counter-screen for Nrf2 inhibitors. Potency, µM (highest dose often 46 µM), without a hit: top-dose activity change, negative = cytotoxicity, most hits filed as inhibitors. A549 ARE-Fluc cells, CellTiter-Fluor viability, 18-24 h. AID 504648. 0.16% of 390,000 active; note: potency is the fitted concentration of half-maximal effect; % is set by controls: 0 for no effect and ±100 for the full control effect
#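 A549 ARE-Fluc cells in 5% FBS OPTI-MEM, 5000 cells/well, rested 2 h then exposed to compounds in concentration-response for 18-24 h at 37 °C. Viability by CellTiter-Fluor fluorescence (Ex 405/Em 525) after 30 min; luciferase luminescence (BugLite, 15 min, RT) read afterwards.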
# Nrf2 block = inhibitors of Nrf2 signaling; AID 504444; 2.1% of 360,000 active; A549 ARE-Fluc reporter, luciferase luminescence, 18-24 h; Potency, µM (series often up to 46 µM), inactives show at the highest dose activity change, negative = inhibition, most hits filed as inhibitors; note: potency is the fitted concentration of half-maximal effect; % is set by controls: 0 for no effect and ±100 for the full control effect; nearly all actives have a fitted effect of over 60% in size
#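 Cells were seeded and rested 2 h, then exposed to compounds for 18-24 h. CellTiter-Fluor was read first as a viability measure. BugLite was added 15 min before the final luminescent read of ARE-luciferase activity in A549 cells.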
# Nrf2 activator = Nrf2 pathway activation. AID 624171. Potency, µM (titrated, usually from 46.1 µM), inactives show at the highest dose activation, most hits filed as activators. AREc32 ARE-luciferase reporter (MCF7-derived line), luminescence, 24 h. 0.31% of 410,000 active; note: potency is the fitted concentration of half-maximal effect; % of control where 0% means no effect; nearly all actives have a fitted effect of over 65% in size
#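 ARE activation measured as luciferase luminescence (Steady-Glo, 30 min RT) in AREc32_Fluc cells after 24 hr compound exposure at 37 deg C, 5% CO2; cells seeded overnight at 1000/well in OPTI-MEM, 5% FBS.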
# The depositor's hits bear a star; ? = inconclusive; · = no result given. Calls come from the whole dose curve; as a rule, active = well fitted curve in the direction sought with a large enough effect; inconclusive = small, poorly fitted or top-dose-only effect, or another doubt; inactive = no such curve, though single readings can be large; an effect the other way counts as inactive or inconclusive.
SMILES,miR-21 FLuc,Mito fusion act,A549 viability,Nrf2 block,Nrf2 activator
O=C(c1ccc(Cl)cc1)N1CCN(c2ccc([N+](=O)[O-])c(NCc3cccnc3)c2)CC1,·,·,?,26µM*,4%
COc1ccc(C2=Nn3c(nnc3-c3ccccc3OC)SC2)c(OC)c1,·,·,2%,19%,·
COc1ccc(CCc2nc(-c3ccc(-n4cccc4)cc3)no2)cc1,-2%,-1%,-10%,16µM*,0%
COc1ccc(OCc2nc(-c3ccc(-n4cccc4)cc3)no2)cc1,-8%,-4%,-7%,·,4%
CCCc1ccc(OC(C)c2nc(-c3ccc(-n4cccc4)cc3)no2)cc1 (stereo not drawn),-3%,·,-14%,23µM*,-1%
CN(C)CCNC(=O)CN1N=C(c2ccccc2)CCC1=O,-3%,·,0%,·,0%
N#C/C(=C/c1ccc(N2CCCCCC2)o1)c1ccc(Cl)cc1,?,-2%,?,-7%,11µM*
N#C/C(=C/c1ccc(N2CCCCC2)o1)c1cccc(F)c1,-23%,-9%,-17%,?,14µM*
COc1cc(C(=O)n2nc(C)c(Sc3ccc(Cl)cc3)c2C)cc(OC)c1OC,-9%,·,5%,1%,0%
CCc1ccc(S(=O)(=O)NCc2nc3cccnc3n2Cc2cccc(OC)c2)cc1,0%,·,0%,·,-1%
CCOc1ccc(N(C)S(=O)(=O)c2ccc(C)c(C(=O)NCc3cccs3)c2)cc1,·,13%,-5%,16µM*,0%
Cc1cc(C)c(C)c(S(=O)(=O)NCc2ccncc2)c1C,12%,3%,-18%,13µM*,0%
Cc1cc(Br)c(S(=O)(=O)NCc2ccncc2)cc1C,10%,0%,-19%,3.7µM*,0%
Cc1ccc(NC(=O)C2CCCN(S(=O)(=O)c3ccc(C)cc3)C2)cc1 (stereo not drawn),10%,·,-6%,-4%,1%
O=C(CN(CCc1ccccc1)S(=O)(=O)c1ccccc1)NCc1ccc(Cl)cc1,16%,·,-13%,21µM*,0%
Cc1ccc(S(=O)(=O)Nc2ccc(N=Nc3ccc(O)cc3)cc2)cc1,-13%,20µM*,-19%,-11%,5%
Cc1ccc(S(=O)(=O)Nc2ccc(-n3c(C)nc4ccccc4c3=O)cc2)cc1,·,2%,0%,18µM*,-1%
CCc1ccc(S(=O)(=O)Nc2ccc3c(c2)sc(=O)n3C)cc1,22%,·,3%,·,7%
CC(=O)c1ccc(S(=O)(=O)Nc2ccc(-n3c(C)nc4ccccc4c3=O)cc2)cc1,·,-3%,1%,1%,0%
Cc1ccc(S(=O)(=O)Nc2ccc3c(c2)CCC3)cc1,11%,?,?,12µM*,0%
CCn1c(=O)sc2cc(NS(=O)(=O)c3ccc(C)cc3)ccc21,9%,·,0%,18µM*,9%
CSc1ccc(S(=O)(=O)Nc2ccc(S(=O)(=O)Nc3ccc(C)cc3)cc2)cc1,-4%,18%,10%,·,0%
Cc1nc2ccccc2n1CCc1nc2c3ccccc3nc(SCc3cccc(F)c3)n2n1,-3%,·,-30%,·,-1%
COc1cccc(NC(=O)CSc2cc(C)[nH]c(=O)n2)c1,-7%,·,0%,·,-1%
O=S(=O)(c1ccc(OC(F)(F)F)cc1)N1CCN(c2nc(-c3cccs3)nc3ccccc23)CC1,·,·,0%,-22%,·
N/C(=N\OC(=O)c1cccs1)c1cccc(Br)c1,-64%,-6%,-1%,?,11µM*
Cc1ccc(/C(N)=N/OC(=O)c2cccs2)cc1,-58%,13%,-2%,?,?
N/C(=N\OC(=O)c1cccs1)c1ccccc1,-59%,1%,5%,?,10µM*
Cc1cccc(/C(N)=N/OC(=O)c2cccs2)c1,-48%,10%,-11%,?,14µM*
CCOC(=O)c1ccccc1Nc1cc(C)nc2nc(-c3ccco3)nn12,-7%,·,-21%,-2%,5%

# Nothing new here: entries from further up.
SMILES,miR-21 FLuc,Mito fusion act,A549 viability,Nrf2 block,Nrf2 activator
Cc1cccc(/C(N)=N/OC(=O)c2cccs2)c1,-48%,10%,-11%,?,14µM*
CCOC(=O)c1ccccc1Nc1cc(C)nc2nc(-c3ccco3)nn12,-7%,·,-21%,-2%,5%

# Back to the main list, starting 4 compounds before the break.
SMILES,miR-21 FLuc,Mito fusion act,A549 viability,Nrf2 block,Nrf2 activator
Cc1ccc(/C(N)=N/OC(=O)c2cccs2)cc1,-58%,13%,-2%,?,?
N/C(=N\OC(=O)c1cccs1)c1ccccc1,-59%,1%,5%,?,10µM*
Cc1cccc(/C(N)=N/OC(=O)c2cccs2)c1,-48%,10%,-11%,?,14µM*
CCOC(=O)c1ccccc1Nc1cc(C)nc2nc(-c3ccco3)nn12,-7%,·,-21%,-2%,5%
COc1ccc(-n2sc3c(c2=S)-c2cc(OC)ccc2NC3(C)C)cc1,-1%,?,-18%,21µM*,2%
Cc1noc2ncnc(NCc3cccc(Cl)c3)c12,19%,·,2%,?,4%
Cc1ccc(CNc2ncnc3cc(Cl)ccc23)cc1,21%,31%,-5%,21µM*,24%
Cc1ccc(CNc2ncnc3onc(C)c23)cc1,?,·,-2%,8.2µM*,-1%
COC(=O)c1ccc(NC(=O)c2cc(S(=O)(=O)N3CCc4ccccc43)cn2C)cc1,30%,·,-6%,?,1%
O=C(Cn1c(COc2ccccc2)nc2ccccc21)Nc1cc(Cl)ccc1Cl,2%,-2%,?,18µM*,-1%
CC(=O)c1c(C)nn(CC(O)COc2ccc3c(c2)CCC3)c1C (stereo not drawn),10%,2%,2%,9.2µM*,0%
O=C(Nc1nnc(C2CC2)s1)c1ccc(Cl)c(S(=O)(=O)N2CCc3ccccc3C2)c1,-9%,5%,-4%,23µM*,0%
OC(C1=CC(=Cc2ccncc2)c2ccccc21)c1ccncc1 (stereo not drawn),·,·,-21%,21µM*,?
O=C(CNc1ccc2ccccc2c1)N/N=C/c1cc2ccccc2nc1Cl,-25%,14µM*,-3%,13%,23%
Cc1ccccc1OCC(=O)N/N=C/c1cc2ccccc2nc1Cl,0%,-3%,-27%,18µM*,1%
O=C(COc1cccc(Cl)c1)N/N=C\c1cc2ccccc2nc1Cl,0%,-3%,0%,5%,0%
Cc1ccc2nc3c(cc(C#N)c(=O)n3-c3nnc(SCc4ccc(F)cc4)s3)c(=O)n2c1,-14%,·,1%,6%,0%
CCOc1ccc(CCNC(=O)CCc2c(C)nc3cc(-c4ccccc4OC)nn3c2C)cc1,?,·,-5%,15µM*,-2%
CCOc1ccc(NC(=O)c2cc(C)nc3c2c(C)nn3-c2ccc(C)cc2)cc1,0%,·,5%,?,1%
O=C1CN(C(=O)COC(=O)/C=C/c2ccco2)c2ccccc2N1,-2%,0%,1%,0%,13µM*
C=CCNc1nc2c(c(=O)n(C)c(=O)n2C)n1CC,-3%,3%,1%,-15%,0%
C=CCNc1nc2c(c(=O)n(C)c(=O)n2C)n1Cc1ccc(F)cc1,17%,-4%,0%,8.2µM*,-1%
C=CCNc1nc2c(c(=O)n(C)c(=O)n2C)n1CCCCCC,16%,18%,-22%,4.1µM*,3%
